Literature values in patent US20130177627A1, “Growth inhibitory effects of nanoparticles containing triterpene glycosides or triterpenes” (priority 2011, published 2013).

Tested on: MDA-MB-453 human breast cancer cells
Conditions: MDA-MB-453 (Yakes et al., 2002); cited from earlier work

Substance: Herceptin: the antibody to Her2
- sensitivity of cells to Herceptin: relatively resistant
